Among the targets are human Activin A (human) (UniProt A4D1W7); human GDF-11 (human) (UniProt O95390); human Activin B (human) (UniProt P09529).
Assay [1] addresses human GDF-8 (myostatin) (human).

On to “A109 (SEQ ID NOs: 39 & 17) (from UniProt P0DOX7 1-214)”, for which the IC50; neutralisation of human Activin A (2 nM), Smad2/3 luciferase reporter cells (CAGA-luc), RLU against A109 (nM Log) in the assay with human Activin A (human) worked out at 2 nM. The same substance returned an IC50; neutralisation of human GDF-11 (2 nM), Smad2/3 luciferase reporter cells (CAGA-luc), RLU against A109 (nM Log) with human GDF-11 (human) of 4.4 nM. In assay [1], this substance registered an IC50; neutralisation of human GDF-8 (2 nM), Smad2/3 luciferase reporter cells (CAGA-luc), RLU against A109 (nM Log) of 0.3 nM. In the assay with human Activin B (human), this substance yielded an IC50; neutralisation of human Activin B (2 nM), Smad2/3 luciferase reporter cells (CAGA-luc), RLU against A109 (nM Log) of 0.2 nM.
“A110 (SEQ ID NOs: 41 & 17) (from UniProt P0DOX7 1-214)”: the IC50; neutralisation of human Activin A (2 nM), Smad2/3 luciferase reporter cells (CAGA-luc), RLU against A110 (nM Log) with human Activin A (human) turned out to be 4.5 nM. Further, the IC50; neutralisation of human GDF-11 (2 nM), Smad2/3 luciferase reporter cells (CAGA-luc), RLU against A110 (nM Log) with human GDF-11 (human) is 5.3 nM. In addition, the IC50; neutralisation of human GDF-8 (2 nM), Smad2/3 luciferase reporter cells (CAGA-luc), RLU against A110 (nM Log) in assay [1] was determined as 1.4 nM. Moreover, the IC50; neutralisation of human Activin B (2 nM), Smad2/3 luciferase reporter cells (CAGA-luc), RLU against A110 (nM Log) with human Activin B (human) came out at 0.8 nM.

The record behind these values is patent US20230391863A1.
